In US20070281894A1, “PREPARATION AND UTILITY OF SUBSTITUTED ERYTHROMYCIN ANALOGS” (Auspex Pharmaceuticals, Inc., priority 2006, published 2007):

Details: topical or ocular
Procedure: Liver microsomal stability assays were conducted at 1 mg per mL liver microsome protein with an NADPH-generating system in 2% NaHCO3 (2.2 mM NADPH, 25.6 mM glucose 6-phosphate, 6 units per mL glucose 6-phosphate dehydrogenase and 3.3 mM MgCl2). Test compounds were prepared as solutions in 20% acetonitrile-water and added to the assay mixture (final assay concentration 5 microgram per mL) and incubated at 37° C. Final concentration of acetonitrile in the assay should be <1%. Aliquots (50 μL) were taken out at times 0, 15, 30, 45, and 60 minutes, and diluted with ice cold acetonitrile (200 μL) to stop the reactions. Samples were centrifuged at 12000 RPM for 10 minutes to precipitate proteins. Supernatants were transferred to microcentrifuge tubes and stored for LC/MS/MS analysis of the degradation half-life of the test compounds.

Question: With “d6-6-O-Methyl-Erythromycin A (d6-clarithromycin) [Example 14]” as the substance, how does the “increase in the degradation half-life as compared to the non-isotopically enriched drug (clarithromycin)” value read?
Answer: 10-400%
